Results as given in patent US6087375A, “Methods of treating or preventing thromboses” (priority 1999, dated 2000).

Key:
[1] = target: T1, thrombin from human plasma (Homo sapiens, UniProt P00734); test: Km-based chromogenic thrombin inhibition assay (S-2238); format: biochemical; parameters: from tissue; host or cells: human plasma
Description: Specifically, a Km-based chromogenic assay was first employed. […] Measurements at 405 nm are designed to detect the thrombin-induced liberation of p-nitroaniline from the S-2238 substrate. As such, an observed increase in absorbance at 405 nm directly correlates with an increase in hydrolysis of the substrate by thrombin.

[2] = target: T1, thrombin from human plasma; test: Vmax-based thrombin inhibition assay (200 μM S-2238); format: biochemical; parameters: from tissue; host or cells: human plasma
[3] = target: T1, thrombin from human plasma; test: Km-based inhibition assay for thrombin with conjugated HSA (10 μM S-2238); format: biochemical; parameters: from tissue; host or cells: human plasma
Method: Reaction conditions for conjugation of HSA with an NHS ester derivative of argatroban: 5 μM HSA was incubated with 235 μM of NHS ester of argatroban in 1.5 DMSO, 1.5% ethanol in PBS, pH 7.4 for 1.5 hours at room temperature. At this point, the unreacted ester in the sample was quenched by addition of 1.2 mM hydroxylamine and held at room temperature for 30 minutes. Conjugated HSA was desalted on a kwiksep column to remove any unbound forms of the argatroban derivative and concentrated using a centricon-10 column to approximately the initial reaction volume. Appropriate analogous procedures were followed for controls using 1) underivatized HSA protein and 2) HSA protein processed with prequenched argatroban NHS ester.
In a Km-based inhibition assay for thrombin from human plasma, 2.5 mU of thrombin in 10 μl of 0.1% polyethylene glycol 8000 (PEG) in PBS, pH 7.2, were added to 240 μl of PBS containing as final concentrations 10 μM S-2238 hydrolysis substrate, 1% DMSO, 0.1% PEG, and with or without 40 μg/ml HSA. HSA proteins tested included HSA conjugated with an NHS ester of argatroban, HSA processed with hydroxylamine prequenched NHS ester of argatroban and HSA processed through the same incubations and desaltings used to remove residual or free acid forms of the NHS ester of argatroban as in the above samples. The rate of substrate hydrolysis by thrombin was nearly linear for the first ten minutes in all cases, as measured by an increase in absorbance at 405 nm from the production of free p-nitroaniline. In duplicate wells 1) lacking HSA or 2) containing underivatized HSA or 3) containing HSA processed with quenched NHS ester of argatroban, the rate of hydrolysis of substrate was indistinguishable between samples and ranged from 0.94 to 1.08 mOD/minute. In duplicate wells containing HSA conjugated with the NHS ester of argatroban, the rate of hydrolysis of substrate ranged from 0.66 to 0.71 mOD/minute, thus, 32% inhibited compared to controls.
In a second independent experiment, HSA was again conjugated with argatroban-C12 NHS ester (compound YL-015-11). […]

[4] = system: thrombin; test: Sandwich ELISA for thrombin binding of conjugated proteins (anti-thrombin detection); details: for increase of OD490 versus prequenched ester or HSA alone: thrombin/anti-thrombin ELISA
Method: Materials and Methods: Human serum albumin (ISA, Sigma Cat. #A-8763) at a concentration of 333 μg/ml or rabbit serum albumin (RSA, Sigma Cat #A-9438) at a concentration of 300 μg/ml was reacted with 100 μM argatroban-C6 or -C12 NHS ester (compounds YL-015-35 or YL-015-11, respectively) in PBS, pH 7.4, for 1 hour at room temperature. The reaction was quenched by the addition of hydroxylamine, pH 7.8 to a final concentration of 50 mM and incubation at room temperature for 10 minutes. Prequenched negative control samples were of the same composition except that the argatroban NHS ester was reacted with hydroxylamine for 10 minutes prior to the addition of HSA or RSA. Finally, the HSA or RSA only sample had DMSO added to 1% to mimic the addition of argatroban NHS ester solutions and was incubated and quenched the same as the other reactions.
Rabbit anti-HSA (Boehringer/Mannheim, catalog no. 605001) or goat anti-RSA (Cappel, catalog no. 55629) antibodies were diluted 1:5000 in PBS, pH 7.4 and 100 μl/well was aliquotted into a NUNC Maxisorp F96 plates (catalog no. 439454). The plate was incubated overnight at 4° C., then blocked by the addition of 200 μl/well of 1% BSA/PBS and incubated at room temperature for 1 hour. The plate was then washed 5 times by submersion in PBS, pH 7.4.
The various HSA/argatroban derivative or RSA/argatroban derivative samples were serially diluted in 1% BSA/PBS (1:100 to 1:50,000) and 100 μl/well was added to duplicate wells of each sample dilution. Samples were incubated on the plates for 2 hours at room temperature and the plates were then washed as above.
Thrombin (Via Enzymes Systems, 11.4 mg/ml) was diluted to 9.4 μg/ml in PBS, pH 7.4, with 0.1% BSA/0.1% PEG 8000 (Sigma, catalog no. P-2139) and 100 μl/well was added. The plates were incubated at room temperature for 1 hour and washed as above.
Mouse anti-thrombin (American Diagnostics, catalog no. EST-7), an antibody thought to bind away from the active site of thrombin, was diluted to 1 μg/ml in PBS, pH 7.4, with 0.1% BSA/0.1% PEG 8000 and 100 μl/well was added to all wells. The plates were incubated at room temperature for 30 minutes and washed as above.
Biotinylated rabbit anti-mouse IgG (mouse gamma specific, Zymed, catalog no. 61-6540) was diluted 1:1000 in PBS, pH 7.4, with 0.1% BSA and 1% PEG 8000 and 100 μl/well was added to all wells. The plates were incubated at room temperature for 30 minutes and washed as above.
Next, 100 μl/well of ABC-HRP (Vector, catalog no. PK4000) was added, each component diluted 1:500 in PBS, pH 7.4, with 0.1% TWEEN 20 and incubated 30 minutes at room temperature prior to use. PEG 8000 was added to 0.1% just before addition of ABC-HRP to the plates. The plates were incubated with ABC-HRP for 30 minutes at room temperature and were then washed 10 times by submersion in PBS, pH 7.4. […]
(§1) Finally, 100 μl/well of o-phenylenediamine dihydrochloride (OPD, Sigma, catalog no. P-3804) was added at 0.5 mg/ml in citrate-phosphate buffer, pH 5.3 with 0.015% H2 02 and incubated at room temperature for 30 minutes. After incubation, 200 μl/well of 2 N sulfuric acid (VWR, catalog no. VW3S00-1) was added and absorbance was read at OD490 in a SpectraMax plate reader (Molecular Devices) after agitating the plate for 5 seconds. […]

[5] = system: anti-KLH-argatroban antibody; test: Sandwich ELISA using polyclonal anti-KLH-argatroban antibodies; format: binding, rabbit
Method: Materials and Methods: Human serum albumin (HSA, Sigma catalog no. A-8763) or human glycophorin A (hGPA) protein at a concentration of 300 μg/ml was reacted with 100 μM argatroban-C6 NHS ester (compound YL-015-35) in PBS, pH 7.4, for 1 hour at room temperature. The reaction was quenched by adding hydroxylamine, pH 7.8 to a final concentration of 50 mM and incubating at room temperature for 10 minutes. Prequenched negative control samples were of the same composition except that the argatroban-C6NHS ester derivative was reacted with hydroxylamine for 10 minutes prior to the addition of HSA or hGPA protein. Finally, the HSA or hGPA only samples had DMSO added to 1% to mimic addition of argatroban derivative solutions and was incubated and quenched the same as other reactions. […]
as §1, with “15 -20” for “30”, “Then, 100” for “After incubation, 200”, “VW3500-1)” for “VW3S00-1)”, “absorbance” for “absorbance was”

CC1CNc2c(cccc2S(=O)(=O)N[C@@H](CCCNC(=N)N)C(=O)N2CC[C@@H](C)C[C@@H]2C(=O)O)C1 (stereo partly drawn) [argatroban, reference compound]
pIC50 [1]: 7.70
pIC50 [2]: 6.60

HSA conjugated with the NHS ester of argatroban: 5 μM HSA incubated with 235 μM of NHS ester of argatroban, quenched with hydroxylamine and desalted
inhibition of thrombin compared to controls ([3]; 40 μg/ml HSA, 10 μM S-2238, 2.5 mU thrombin): 32%

HSA reacted with argatroban-C6 NHS ester: human serum albumin reacted with 100 μM argatroban-C6 NHS ester (YL-015-35)
concentration at which a significant signal above background was detected ([4]; HSA conjugate, FIG. 2): approximately 10 ng/ml
OD of C6 relative to C12 derivatized compound ([4]; HSA conjugate, at saturation, FIG. 2): 6-7 fold
increase of OD490 versus prequenched ester or HSA alone [4]: significant increase of OD490
increase of OD490 versus prequenched ester or protein alone ([5]; HSA and hGPA samples, FIGS. 5-8): significant increase of OD490
concentration at which a significant signal above background was detected ([5]; HSA, FIG. 5): approximately 13 ng/ml

HSA reacted with argatroban-C12 NHS ester: human serum albumin reacted with argatroban-C12 NHS ester (YL-015-11)
concentration at which a significant signal above background was detected ([4]; HSA conjugate, FIG. 2): approximately 10 ng/ml
increase of OD490 versus prequenched ester or HSA alone [4]: significant increase of OD490
inhibition of thrombin activity relative to control samples ([3]; second independent experiment, HSA 40 mg/ml): 15-20%
inhibition of thrombin activity compared to control samples ([3]; second independent experiment, HSA 80 mg/ml): 35-42%

pIC50: −log10 of the molar value.
